Legend:
[1] = target: Mth GuaB2 (full-length) (Mycolicibacterium thermoresistibile, UniProt G7CNL4); assay: biochemical
[2] = tested on: replicating H37Rv; format: cell-based, Mycobacterium tuberculosis

Amino acid sequences for entries named in this document (tags omitted). Residues count along the entry.
UniProt G7CNL4, 1-513: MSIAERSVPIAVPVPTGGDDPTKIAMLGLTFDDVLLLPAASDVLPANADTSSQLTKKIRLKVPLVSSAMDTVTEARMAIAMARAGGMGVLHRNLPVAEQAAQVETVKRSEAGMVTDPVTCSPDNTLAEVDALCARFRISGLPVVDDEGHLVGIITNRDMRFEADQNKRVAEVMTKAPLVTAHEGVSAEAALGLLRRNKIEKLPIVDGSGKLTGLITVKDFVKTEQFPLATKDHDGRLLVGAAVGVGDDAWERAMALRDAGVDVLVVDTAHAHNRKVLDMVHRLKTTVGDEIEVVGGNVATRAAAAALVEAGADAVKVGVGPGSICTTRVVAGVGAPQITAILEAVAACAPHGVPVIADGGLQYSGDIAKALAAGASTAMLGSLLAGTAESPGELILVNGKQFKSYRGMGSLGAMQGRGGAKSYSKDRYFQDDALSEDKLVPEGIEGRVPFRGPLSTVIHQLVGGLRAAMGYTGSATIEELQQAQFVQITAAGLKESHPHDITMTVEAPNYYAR

O=C(C1CCCCC1)N1CCN(S(=O)(=O)c2cccc3cnccc23)CC1 [VCC234718, N-(5-Isoquinolinylsulfonyl)-N’-cyclohexanoyl-piperazine]
Ki [1]: 130 nM
selectivity index (TD50/MIC) [2]: ≥ 8 fold

Source: publication PMC5241705 (ACS Infectious Diseases, 2016)
